According to PubChem BioAssay AID1046 (PCMD, 2008):
This is a selection; strong and weak results do not stand in their true shares. The source made the active and inactive calls.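 Rule for the calls: active = inhibition at or above 40%; inactive = inhibition below 40%.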

These compounds were tested against Prothrombin (Homo sapiens) (UniProt P00734) (assay: human alpha-thrombin inhibitors, primary screen, counter-screen for coagulation protease inhibitor project, biochemical, 1536-well, fluorogenic AMC substrate (AID 1046;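 note: 0% = enzyme with no compound and 100% = wells without enzyme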)). Details: Boc-VPR-AMC fluorogenic substrate cleavage, at 5 µM, hits give high values.
In the case of `O=[N+]([O-])c1ccc(OP2(=O)COCCO2)cc1` (stereo unspecified), the inhibition was inactive: -1.23%.
